Activity change, negative = inhibition data for two molecules are collected here from PubChem BioAssay AID894 (National Center for Advancing Translational Sciences (NCATS), 2007).

Chains of the proteins cited; added tags and fusions are not shown.
UniProt P15428, whole entry: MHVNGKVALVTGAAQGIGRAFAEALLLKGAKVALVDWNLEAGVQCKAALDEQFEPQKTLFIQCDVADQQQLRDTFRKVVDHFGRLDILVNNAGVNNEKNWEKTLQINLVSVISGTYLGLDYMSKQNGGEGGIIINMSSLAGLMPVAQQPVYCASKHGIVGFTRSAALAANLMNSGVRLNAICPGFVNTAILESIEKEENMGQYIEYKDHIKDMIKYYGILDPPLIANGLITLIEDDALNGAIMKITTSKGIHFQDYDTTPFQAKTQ

The structures appear in SMILES notation. Only a part is listed here, and it is no random draw. Results filed as inconclusive are left out. The source made the active and inactive calls. Calls come from the whole dose curve; as a rule, active = well fitted inhibition curve with a large enough effect (not every such curve was filed as active); inconclusive = small, poorly fitted or top-dose-only effect, or another doubt; inactive = no such curve, though single readings can be large or run the other way.
% is set by controls: 0 for no effect and ±100 for the full control effect.

The target of the test is 15-hydroxyprostaglandin dehydrogenase [NAD(+)] (Homo sapiens) (UniProt P15428). Nature of the test: qHTS Assay for Inhibitors of HPGD (15-Hydroxyprostaglandin Dehydrogenase). Note: test concentration not given here. The note with it: purified HPGD, NADH fluorescence kinetic, PGE2 substrate; active compounds read low.
For the molecule `NC1CCCCC1.NP(=O)(O)N(CCCl)CCCl`, the activity change, negative = inhibition was inactive: 0.0456%. For the molecule `N/C(=N\O)c1c(N)no[n+]1[O-]`, the activity change, negative = inhibition is inactive: -7.34%.
